The data set is described as follows: Oral bioavailability in Sprague-Dawley rat at 20 mg/kg. Format: ADME, organism-based. The settings on record: in vivo.

`Cc1cc(C#N)cc(C)c1Oc1nc(NC2CCN(Cc3ccc(C(N)=O)cc3)CC2)ncc1-c1ccncc1` yielded an F of 15.3%.

Values taken from ChEMBL document CHEMBL4834412, “2,4,5-Trisubstituted Pyrimidines as Potent HIV-1 NNRTIs: Rational Design, Synthesis, Activity Evaluation, and Crystallographic Studies” (J Med Chem, 2021).
